Target: WD repeat-containing protein 5, N-terminal truncation (WDR5^23–334) (UniProt P61964 23-334)
Test: fluorescence polarisation; steady-state FP anisotropy; 50 nM FITC-labeled peptide, serially diluted WDR5; 150 mM NaCl, 20 mM Tris-HCl, 1 mM TCEP, 0.005% tween 20, pH 7.5, 1 h at room temperature; four-parameter logistic fit
Details: both partners purified

Binder QEDEEEIDVVSVE (fluorescein isothiocyanate (FITC) label, position not stated) [fluorescein isothiocyanate (FITC)-labeled MYCWBM peptide] has a Kd of 5 ± 0.9 µM.

Source: paper PMC11308778, “Real-Time Measurement of a Weak Interaction of a Transcription Factor Motif with a Protein Hub at Single-Molecule Precision” (ACS Nano, 2024)
